PubChem BioAssay AID1745844 (Carcinogenic Potency Database (CPDB), 2022)
Where “and” joins values, the source holds several entries; their conditions need not be identical. Equal entries are not always repeated. Calls of active or inactive are those of the source. No rule for the calls is given here.

Tested on: rodent lifetime carcinogenesis bioassay, tumor incidence TD50
Test: carcinogenic potency in animals, long-term in vivo studies, CPDB compilation (AID 1745844)

## CN(N=O)C(=N)N[N+](=O)[O-]
monkey, strain Rhesus [Macaca mulatta], both sexes, in feed, site: liver, lesion: hepatocellular adenoma
  TD50: 3.03 mg/kg/day
mouse, strain C57BL/6, females, in drinking water, site: small intestine, lesion: adenocarcinoma, dosed 27 weeks, study length 52 weeks
  TD50: 2.03 mg/kg/day
rat, strain Buffalo-Mai, males, in drinking water, site: stomach, glandular, lesion: carcinoma, invasive, dosed 52 weeks, study length 52 weeks
  carcinogen call: inactive: negative
rat, strain Buffalo-Mai, males, in drinking water, site: stomach, glandular, lesion: carcinoma, preinvasive, dosed 52 weeks, study length 52 weeks
  carcinogen call: inactive: negative
rat, strain F344/DuCrj, males, in drinking water, site: stomach, lesion: adenocarcinoma, dosed 30 weeks, study length 70 weeks
  TD50: 1.81 mg/kg/day
rat, strain F344/DuCrj, males, in drinking water, site: stomach, lesion: adenoma, dosed 30 weeks, study length 70 weeks
  TD50: 1.37 mg/kg/day
rat, strain Fischer 344, females, in feed, site: liver, lesion: hepatocellular carcinoma, dosed 103 weeks, study length 103 weeks
  TD50: 17.8 mg/kg/day
rat, strain Fischer 344, females, in feed, site: stomach, lesion: carcinoma, dosed 103 weeks, study length 103 weeks
  TD50: 1.44 mg/kg/day
rat, strain Fischer 344, males, in drinking water, site: stomach, glandular, lesion: adenocarcinoma, dosed 50 weeks, study length 105 weeks
  TD50: 3.19 mg/kg/day
rat, strain Fischer 344, males, in drinking water, site: stomach, glandular, lesion: adenocarcinoma, dosed 50 weeks, study length 125 weeks
  TD50: 5.22 mg/kg/day
rat, strain Fischer 344, males, in drinking water, site: stomach, glandular, lesion: adenoma, dosed 50 weeks, study length 105 weeks
  TD50: 1.65 mg/kg/day
rat, strain Fischer 344, males, in drinking water, site: stomach, glandular, lesion: adenoma, dosed 50 weeks, study length 125 weeks
  TD50: 2.38 mg/kg/day
rat, strain Fischer 344, males, in drinking water, site: stomach, glandular, lesion: sarcoma, dosed 50 weeks, study length 105 weeks
  TD50: 2.48 mg/kg/day
rat, strain Fischer 344, males, in drinking water, site: stomach, glandular, lesion: sarcoma, dosed 50 weeks, study length 125 weeks
  TD50: 16.5 mg/kg/day
rat, strain Fischer 344, males, in drinking water, site: stomach, glandular, lesion: several types, types named in the paper, dosed 50 weeks, study length 105 weeks
  TD50: 0.592 mg/kg/day
rat, strain Fischer 344, males, in drinking water, site: stomach, glandular, lesion: several types, types named in the paper, dosed 50 weeks, study length 125 weeks
  TD50: 1.42 mg/kg/day
rat, strain Fischer 344, males, in feed, site: stomach, lesion: carcinoma, dosed 103 weeks, study length 103 weeks
  TD50: 0.724 mg/kg/day
rat, strain Sprague-Dawley, males, in drinking water, site: stomach, glandular, lesion: adenocarcinoma, dosed 30 weeks, study length 52 weeks
  TD50: 1.61 mg/kg/day
rat, strain Sprague-Dawley, males, in drinking water, site: stomach, glandular, lesion: adenocarcinoma, dosed 52 weeks, study length 52 weeks
  TD50: 1.12 mg/kg/day
rat, strain WKY/NCrj (Wistar), males, in drinking water, site: gastric mucosa, lesion: adenocarcinoma, dosed 30 weeks, study length 60 weeks
  TD50: 0.895 mg/kg/day
rat, strain Wistar-Mai-Furth, males, in drinking water, site: stomach, glandular, lesion: carcinoma, invasive, dosed 52 weeks, study length 52 weeks
  TD50: 6.75 mg/kg/day
rat, strain Wistar-random, males, in drinking water, site: stomach, glandular, lesion: carcinoma, invasive, dosed 52 weeks, study length 52 weeks
  TD50: 1.03 mg/kg/day
rat, strain Wistar-random, males, in drinking water, site: stomach, glandular, lesion: carcinoma, preinvasive, dosed 52 weeks, study length 52 weeks
  TD50: 2.72 mg/kg/day
rat, strain Wistar, females, in drinking water, site: bile duct, lesion: cystadenoma, dosed 35 weeks, study length 60 weeks
  TD50: 0.178 mg/kg/day
rat, strain Wistar, females, in drinking water, site: duodenum, lesion: adenocarcinoma, dosed 32 weeks, study length 57 weeks
  TD50: 6.38 mg/kg/day
rat, strain Wistar, females, in drinking water, site: stomach, glandular, lesion: adenocarcinoma, dosed 32 weeks, study length 57 weeks
  TD50: 6.38 mg/kg/day
rat, strain Wistar, females, in drinking water, site: stomach, glandular, lesion: carcinoid tumor, malignant, dosed 35 weeks, study length 60 weeks
  TD50: 2.38 mg/kg/day
rat, strain Wistar, males, in drinking water, site: duodenum, lesion: adenocarcinoma, dosed 28 weeks, study length 52 weeks
  TD50: 0.584 mg/kg/day
rat, strain Wistar, males, in drinking water, site: duodenum, lesion: adenocarcinoma, dosed 32 weeks, study length 57 weeks
  TD50: 2.72 mg/kg/day
rat, strain Wistar, males, in drinking water, site: duodenum, lesion: adenocarcinoma, dosed 75 weeks, study length 75 weeks
  TD50: 0.91 mg/kg/day
rat, strain Wistar, males, in drinking water, site: duodenum, lesion: adenoma, dosed 28 weeks, study length 52 weeks
  TD50: 23.7 mg/kg/day
rat, strain Wistar, males, in drinking water, site: duodenum, lesion: leiomyosarcoma, dosed 28 weeks, study length 52 weeks
  TD50: 22.8 mg/kg/day
rat, strain Wistar, males, in drinking water, site: duodenum, lesion: malignant tumor, dosed 28 weeks, study length 52 weeks
  TD50: 0.516 mg/kg/day
rat, strain Wistar, males, in drinking water, site: duodenum, lesion: one or several types, types not named, dosed 30 weeks, study length 54 weeks
  TD50: 3.44 mg/kg/day
rat, strain Wistar, males, in drinking water, site: esophagus, lesion: squamous-cell carcinoma, dosed 75 weeks, study length 75 weeks
  TD50: 11 mg/kg/day
rat, strain Wistar, males, in drinking water, site: forestomach, lesion: several types, types named in the paper, dosed 28 weeks, study length 52 weeks
  TD50: 5.79 mg/kg/day
rat, strain Wistar, males, in drinking water, site: gastric mucosa, lesion: adenocarcinoma, dosed 75 weeks, study length 75 weeks
  TD50: 5.31 mg/kg/day
rat, strain Wistar, males, in drinking water, site: gastrointestinal tract, lesion: adenocarcinoma, dosed 28 weeks, study length 58 weeks
  TD50: 0.81 mg/kg/day
rat, strain Wistar, males, in drinking water, site: gastrointestinal tract, lesion: several types, types named in the paper, dosed 26 weeks, study length 52 weeks
  TD50: 1.6 mg/kg/day and 1.92 mg/kg/day
rat, strain Wistar, males, in drinking water, site: gastrointestinal tract, lesion: several types, types named in the paper, dosed 32 weeks, study length 87 weeks
  TD50: 0.581 mg/kg/day
rat, strain Wistar, males, in drinking water, site: liver, lesion: cholangioma, cystic, dosed 28 weeks, study length 52 weeks
  TD50: 4.58 mg/kg/day
rat, strain Wistar, males, in drinking water, site: liver, lesion: hepatocellular adenoma, dosed 77 weeks, study length 77 weeks
  TD50: 14.3 mg/kg/day
rat, strain Wistar, males, in drinking water, site: pylorus, lesion: adenocarcinoma, dosed 28 weeks, study length 52 weeks
  TD50: 0.428 mg/kg/day
rat, strain Wistar, males, in drinking water, site: pylorus, lesion: malignant tumor, dosed 28 weeks, study length 52 weeks
  TD50: 0.41 mg/kg/day
rat, strain Wistar, males, in drinking water, site: pylorus, lesion: several types, types named in the paper, dosed 28 weeks, study length 52 weeks
  TD50: 0.284 mg/kg/day
rat, strain Wistar, males, in drinking water, site: small intestine, lesion: adenocarcinoma, dosed 28 weeks, study length 58 weeks
  TD50: 1.21 mg/kg/day
rat, strain Wistar, males, in drinking water, site: stomach, glandular, lesion: adenocarcinoma, dosed 28 weeks, study length 58 weeks
  TD50: 4.31 mg/kg/day
rat, strain Wistar, males, in drinking water, site: stomach, glandular, lesion: adenocarcinoma, dosed 30 weeks, study length 65 weeks
  TD50: 0.523 mg/kg/day
rat, strain Wistar, males, in drinking water, site: stomach, glandular, lesion: adenocarcinoma, dosed 77 weeks, study length 77 weeks
  TD50: 3.06 mg/kg/day
rat, strain Wistar, males, in drinking water, site: stomach, glandular, lesion: adenoma, dosed 77 weeks, study length 77 weeks
  TD50: 1.13 mg/kg/day
rat, strain Wistar, males, in drinking water, site: stomach, glandular, lesion: carcinoid tumor, malignant, dosed 35 weeks, study length 60 weeks
  TD50: 2.09 mg/kg/day
rat, strain Wistar, males, in drinking water, site: stomach, glandular, lesion: one or several types, types not named, dosed 26 weeks, study length 52 weeks
  TD50: 7.06 mg/kg/day
rat, strain Wistar, males, in drinking water, site: stomach, glandular, lesion: several types, types named in the paper, dosed 26 weeks, study length 52 weeks
  TD50: 2.28 mg/kg/day
rat, strain Wistar, males, in drinking water, site: stomach, glandular, lesion: several types, types named in the paper, dosed 77 weeks, study length 77 weeks
  TD50: 0.693 mg/kg/day
rat, strain albino, both sexes, in drinking water, site: forestomach, lesion: papilloma, dosed 78 weeks, study length 78 weeks
  TD50: 22.9 mg/kg/day
rat, strain albino, both sexes, in drinking water, site: stomach, glandular, lesion: adenocarcinoma, dosed 78 weeks, study length 78 weeks
  TD50: 22.9 mg/kg/day
rat, strain albino, males, in drinking water, site: gastric mucosa, lesion: adenocarcinoma, dosed 34 weeks, study length 52 weeks
  TD50: 0.403 mg/kg/day

## COP(=O)(OC)N1CCOCC1
mouse, strain B6C3F1, females, by gavage, site: any site (literature study), lesion: several types, types named in the paper, dosed 103 weeks, study length 105 weeks
  carcinogen call: inactive: negative
mouse, strain B6C3F1, females, by gavage, site: lung, lesion: alveolar/bronchiolar adenoma + alveolar/bronchiolar carcinoma, dosed 103 weeks, study length 105 weeks
  TD50: 17600 mg/kg/day
mouse, strain B6C3F1, males, by gavage, site: any site (literature study), lesion: several types, types named in the paper, dosed 103 weeks, study length 105 weeks
  carcinogen call: inactive: negative
mouse, strain B6C3F1, males, by gavage, site: liver, lesion: hepatocellular adenoma + hepatocellular carcinoma + neoplastic nodule, dosed 103 weeks, study length 105 weeks
  TD50: 1270 mg/kg/day
mouse, strain B6C3F1, males, by gavage, site: lung, lesion: alveolar/bronchiolar adenoma + alveolar/bronchiolar carcinoma, dosed 103 weeks, study length 105 weeks
  TD50: 3900 mg/kg/day
rat, strain Fischer 344, females, by gavage, site: all sites, lesion: mononuclear-cell leukemia, dosed 103 weeks, study length 105 weeks
  TD50: 788 mg/kg/day
rat, strain Fischer 344, females, by gavage, site: any site (literature study), lesion: several types, types named in the paper, dosed 103 weeks, study length 105 weeks
  TD50: 774 mg/kg/day
rat, strain Fischer 344, females, by gavage, site: liver, lesion: hepatocellular adenoma + hepatocellular carcinoma + neoplastic nodule, dosed 103 weeks, study length 105 weeks
  TD50: 8240 mg/kg/day
rat, strain Fischer 344, males, by gavage, site: all sites, lesion: mononuclear-cell leukemia, dosed 103 weeks, study length 105 weeks
  TD50: 503 mg/kg/day
rat, strain Fischer 344, males, by gavage, site: any site (literature study), lesion: several types, types named in the paper, dosed 103 weeks, study length 105 weeks
  TD50: 283 mg/kg/day
rat, strain Fischer 344, males, by gavage, site: liver, lesion: hepatocellular adenoma + hepatocellular carcinoma + neoplastic nodule, dosed 103 weeks, study length 105 weeks
  TD50: 2820 mg/kg/day
rat, strain Fischer 344, males, by gavage, site: testis, lesion: interstitial-cell tumor, dosed 103 weeks, study length 105 weeks
  TD50: 283 mg/kg/day

## C[As](C)(C)=O
rat, strain F344/DuCrj, males, in drinking water, site: any site (literature study), lesion: several types, types named in the paper, dosed 104 weeks, study length 104 weeks
  TD50: 5.95 mg/kg/day
rat, strain F344/DuCrj, males, in drinking water, site: liver, lesion: hepatocellular adenoma, dosed 104 weeks, study length 104 weeks
  TD50: 24.1 mg/kg/day
